## Apparent affinities of Ab-14 variants for a coronavirus HR2 peptide

The measurements come from Li et al. 2023 (doi:10.1038/s41467-023-39022-2) through the FLAb antibody collection.

All variants were tested on one target, the spike HR2 peptide PDVDLGDISGINAS (SARS-CoV-2).

Each scFv is VH, a 15-residue (Gly4Ser)3 linker, VL, as in the parent Ab-14, and differs from it in the CDRs of the heavy chain only.
VH: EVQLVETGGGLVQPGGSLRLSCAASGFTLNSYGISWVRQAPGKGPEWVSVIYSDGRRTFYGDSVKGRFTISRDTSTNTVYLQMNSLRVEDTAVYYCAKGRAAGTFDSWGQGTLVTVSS
VL: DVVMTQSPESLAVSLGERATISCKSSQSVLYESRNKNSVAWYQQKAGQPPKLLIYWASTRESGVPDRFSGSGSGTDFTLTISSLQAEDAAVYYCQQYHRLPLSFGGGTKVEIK

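Designed CDR sequences, proposed from the first random library and measured here. Several design methods are mixed in this list. The scFvs were displayed on barcoded MATa yeast, the peptide on MATalpha yeast. Pairs that bind mate more often; barcode pairs of the diploids are counted by sequencing. Read counts were normalised to the haploid input and turned into Kd by a linear fit to BCL2-family pairs of known affinity, for each replicate. Each pool was mated in six replicate cultures.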

Each variant is given by its three heavy chain CDRs, as the data file delimits them; those of the parent are GFTLNSYGIS, VIYSDGRRTFYGDSVK, GRAAGTFDS.
Affinities are written as log10 Kd with Kd in nM; a lower number is a better binder.
The mean shown is taken over the replicates in which the pair was detected.
"not detected" marks a missing value. The strain was present, yet no cells mated with the target were sequenced in any replicate, which points to weak or no binding.

| CDR-H1 | CDR-H2 | CDR-H3 | mean, log10 nM | detected | empty controls |
|---|---|---|---|---|---|
| GFDLNEYGIS | VIYADGRRTFYSDSVK | GQLAGTFDE | -0.56 | 6/6 | 0/18 |
| GTTLESYGIS | VIYSDGERTFYGDSVK | GRAACTFDS | not detected | 0/6 | 0/18 |
| GFDLNEYGIS | VIYADGVRTAYADDVK | GNVAGTFDI | -0.44 | 6/6 | 0/18 |
| MFELNSYGIS | VIYSDGRRTFYIDSVK | GNAAGTFDS | not detected | 0/6 | 1/18 |
| GFDLNSYGIS | VIYSDGRRTFYSDSVK | GRAAGFFDS | not detected | 0/6 | 0/18 |
| GFDLNEYGIS | VIYADGKRTAYADTVK | GNVAGTFDL | -0.55 | 6/6 | 0/18 |
| GFKLNEYGIS | VIYADGQRVAYTDSFK | GTQAGMVFE | 0.91 | 1/6 | 0/18 |
| GFDLNEYGIS | VIYADGRRTQYIDSVK | GETAGTFDE | -0.82 | 6/6 | 0/18 |
| GFDLNSYGIS | VIYSDGRRTFYKDSVK | GRAAGTFDS | 0.27 | 6/6 | 0/18 |
| GFELNSYGIS | VIYSDGRRTFYGDSVK | GDAAGTFDT | 0.50 | 6/6 | 0/18 |
| GFTLNDYGIS | VIYSDGRRTFYGDSVK | GRAAGTFTQ | not detected | 0/6 | 0/18 |
| GDILEEYGIS | VIYADGMRTYYEDSVK | GNVNGTFFI | 2.45 | 3/6 | 0/18 |
| GFNLGEYGIS | VIYADGRRTFYKDSVK | GHFIVSGVD | not detected | 0/6 | 0/18 |
| GFVLNSYGIS | VIYSDGRRTFYADSVK | GQAAGTFDT | 1.79 | 6/6 | 0/18 |
| GFDLDEYGIS | VIYADGRRTFYSDSVK | GKTAGTFDV | -0.60 | 6/6 | 0/18 |
| GFDLNEYGIS | VIYADGRRTFYIDSVK | GTAAGTFDV | -0.62 | 6/6 | 0/18 |
| TFTLNSYGIS | VIYSDGARTFYDDSTK | GQLAGTFDD | 1.17 | 1/6 | 0/18 |
| NFDLNSYGIS | VIYSDGRRTFYTDSVK | GQTAGTFDS | 0.51 | 6/6 | 0/18 |
| GFDLNEYGIS | VIYADGMRTSYDDSVK | GQLAGTFDQ | -0.15 | 5/6 | 0/18 |
| GFDLNEYGIS | VIYADGRRQAYADSVK | GNVAGTFDV | -0.49 | 6/6 | 1/18 |
| GFDLNEYGIS | VIYADGKRTAYADSVK | GETAGTFDL | -0.20 | 6/6 | 0/18 |
| GFTLNSYGIS | VIYSDGKRTFYADDVK | GRVAGTFDV | 0.05 | 6/6 | 0/18 |
| GFDLDEYGIS | VIYADGRRTAYADSVK | GEVAGTFDL | -0.08 | 6/6 | 0/18 |
| GFDINEMGIS | VIYADGQRLFYADEVK | GENTGSFDM | not detected | 0/6 | 0/18 |
| GFDLDEYGIS | VIYADGMRTAYADDVK | GTNAGTFDV | -0.73 | 6/6 | 0/18 |
| GFSLDEYGIS | VIYADGTRTFYTDNVK | GLISMVCGL | not detected | 0/6 | 0/18 |
| GFDLNEYGIS | VIYADGRRTAYADNVK | GENAGTFDI | -0.25 | 6/6 | 0/18 |
| GFDLDEYGIS | VIYADGQRTAYADSVK | GEVAGTFDI | -0.48 | 6/6 | 0/18 |
| GFNLDEYGIS | VIYADGRRTAYADSVK | GNVAGTFDV | -0.37 | 6/6 | 0/18 |
| GVTLNSYGIS | VIYSDGYRTFYGDSVK | GRAAGTFDS | not detected | 0/6 | 0/18 |
| GFTLNTYGIS | VIYSDGLRTFYGDSVK | GRAAGTFDS | 1.42 | 5/6 | 0/18 |
| GFDLNEYGIS | VIYADGRRKFYADSVK | GENAGTFNV | -0.31 | 6/6 | 2/18 |
| GFDLNEYGIS | VIYADGRRTFYTDSVK | GAVAGTFDQ | -0.56 | 6/6 | 0/18 |
| GFNLDEYGIS | VIYADGRRTFYADSVK | GQQAGTFDM | 0.82 | 6/6 | 0/18 |
| GFDLNEYGIS | VIYSDGRRTFYMDSVK | GRTAGTFDS | 0.86 | 6/6 | 0/18 |
| GVDIDEYGIS | VIYADGIRTFYIDKVK | GNVGGQFDT | 1.64 | 6/6 | 0/18 |
| GFSLNDYGIS | VIYSDGRRTFYGDSVK | GRAAGTFDI | 0.11 | 6/6 | 0/18 |
| GFTLNSYGIS | VIYSDGRRTFYIDSVK | GRNAGTFDS | 2.32 | 2/12 | 1/36 |
| GFTLNSYGIS | VIYSDGRRTFYGDDVK | GYAAGTFDS | not detected | 0/6 | 0/18 |
| GFTLNSYGIS | VIYSDGRRTFYDDSVK | GRVSGTFDS | 1.18 | 6/6 | 0/18 |
| GNSLDEYGIS | VIYADGMRTAYTDDVK | GVVSNTLVD | not detected | 0/6 | 0/18 |
| GFDLDEYGIS | VIYADGRRTFYADSVK | GEAAGTFDV | 0.71 | 5/6 | 0/18 |
| GFDLNEYGIS | VIYADGSRTAYIDSVK | GNVAGTFDL | -0.37 | 6/6 | 0/18 |
| GFELNSYGIS | VIYSDGRRTFYGDSVK | GKTAGTFDS | 1.13 | 5/6 | 0/18 |
| GFDLNEYGIS | VIYADGVRSAYADSVK | GNNAGTFDV | -0.40 | 6/6 | 0/18 |
| TLTLNSYGIS | VIYSDGRRTFYGDSVK | GRAAGTFNL | not detected | 0/6 | 0/18 |
| GFSLNEYGIS | VIYSDGRRTFYGDSVK | GRAAVTFDQ | not detected | 0/6 | 0/18 |
| GFDLNEYGIS | VIYADGVRTFYTDNVK | GQNAGTFDV | -0.56 | 6/6 | 0/18 |
| GFDLNEYGIS | VIYADGLRTVYADSVK | GENAGTFDV | -0.26 | 6/6 | 0/18 |
| GFTLNSYGIS | VIYSDGRRTPYDDSVK | GQWAGTFDS | not detected | 0/6 | 0/18 |
| GFDLNEYGIS | VIYADGMRTFYADSVK | GNEAGTFDI | -0.99 | 6/6 | 0/18 |
| GFSIDEYGIS | VIYADGIRASYAPKVK | GQYAGDFIE | not detected | 0/6 | 0/18 |
| GFDLNEYGIS | VIYADGRRTAYTDSVK | GENAGTFDL | -0.35 | 6/6 | 0/18 |
| GFDLNEYGIS | VIYADGRRTFYSDSVK | GQNAGTFDE | -0.13 | 6/6 | 0/18 |
| GFDLNEYGIS | VIYADGKRTAYTDSVK | GNQAGTFDV | -0.27 | 6/6 | 0/18 |
| GFTLNEYGIS | VIYSDGRRTFYKDSVK | GQAAGTFDS | -0.60 | 3/6 | 1/18 |
| GFSLNNYGIS | VIYSDGRRTFYGDSVK | GVTAGTFDS | 1.25 | 6/6 | 0/18 |
| GFVLNSHGIS | VIYSDGRRTFYGDSVK | GRAAGTFDS | 2.36 | 6/6 | 1/18 |
| GFDLNEYGIS | VIYADGQRTAYIDSVK | GNVAGTFDT | -0.28 | 6/6 | 0/18 |

Excerpt, the final 6 entries:

| CDR-H1 | CDR-H2 | CDR-H3 | mean, log10 nM | detected | empty controls |
|---|---|---|---|---|---|
| GFDLNEYGIS | VIYADGRRTFYSDSVK | GQNAGTFDE | -0.13 | 6/6 | 0/18 |
| GFDLNEYGIS | VIYADGKRTAYTDSVK | GNQAGTFDV | -0.27 | 6/6 | 0/18 |
| GFTLNEYGIS | VIYSDGRRTFYKDSVK | GQAAGTFDS | -0.60 | 3/6 | 1/18 |
| GFSLNNYGIS | VIYSDGRRTFYGDSVK | GVTAGTFDS | 1.25 | 6/6 | 0/18 |
| GFVLNSHGIS | VIYSDGRRTFYGDSVK | GRAAGTFDS | 2.36 | 6/6 | 1/18 |
| GFDLNEYGIS | VIYADGQRTAYIDSVK | GNVAGTFDT | -0.28 | 6/6 | 0/18 |

A sequence measured in both rounds can read differently, since the two assays cover different ranges.
Background: pairings of all heavy chain designs with three empty control strains gave a value in 1% of cases (median 2.08, 5th percentile 0.84). Values in that range, when seen in few replicates, are hard to tell from nonspecific mating. For each scFv, signals with the empty controls are counted beside the result.
Of ten entries with the parent sequence, four were seen in most replicates (averages 0.34 to 2.37), three in one and three in none, so single entries are noisy.
The authors' rule: three or more of the six replicates give a measured affinity, fewer mean a poor binder.
Where one sequence has several entries in the source, the replicates are pooled.